This note sets out measurements from PMC5909127, “Optimization of a “bump-and-hole” approach to allele-selective BET bromodomain inhibition” (Chemical Science, 2018).

Experiment [1] has as its target T1, BRD4 BD1 L/V (Homo sapiens, UniProt O60885, L94V). Kind of experiment: competitive AlphaLISA. It is filed as binding.
The target in experiment [2] is T2, BRD4 BD2 L/V (Homo sapiens, UniProt O60885, L387V). The experiment is described as follows: ITC. The experiment is classed as binding.
Experiment [3] has as its target L/V somatic BET bromodomains. Kind of experiment: ITC. Conditions: mean and SD of all somatic bromodomains.
For another experiment, the target named is BRD4 BD2 WT (Homo sapiens, UniProt O60885). Kind of experiment: ITC. The experiment is classed as binding.
Experiment [4] deals with T2, BRD4 BD2 L/V. The experiment is described as follows: competitive AlphaLISA. The experiment is classed as binding.
Experiment [5] concerns the target T3, BRD2 BD2 L/V (Homo sapiens, UniProt P25440, L383V). The experiment is described as follows: ITC. It is filed as binding. The note with it: ITC stoichiometry.
A further experiment addresses BRD3 BD2 L/V (Homo sapiens, UniProt Q15059, L345V). The experiment is described as follows: ITC. It is filed as binding. Conditions: ITC stoichiometry.
For another experiment, the target named is BRD4 BD1 WT (Homo sapiens, UniProt O60885). The experiment is described as follows: ITC. It is filed as binding.
The target in the next experiment is BRD3 BD1 L/V (Homo sapiens, UniProt Q15059, L70V). Kind of experiment: ITC. It is filed as binding. Conditions: ITC stoichiometry.
Experiment [6] deals with T3, BRD2 BD2 L/V. Kind of experiment: competitive AlphaLISA. The experiment is classed as binding. The note with it: read-out: AlphaLISA pIC50 Value BRD2 BD2 L/V (converted).
The next experiment addresses BRD2 BD1 L/V (Homo sapiens, UniProt P25440, L110V). Kind of experiment: ITC. The experiment is classed as binding. Conditions: ITC stoichiometry.
Experiment [7] has as its target L/V BET bromodomains (BD1 and BD2 of BRD2, BRD3 and BRD4). The experiment is described as follows: competitive AlphaLISA (Bio-JQ1 displacement). The experiment is classed as binding, human. The note with it: mean and SD of all somatic bromodomains; active enantiomer concentration.
For experiment [8], the target named is T1, BRD4 BD1 L/V. Kind of experiment: ITC. The experiment is classed as binding.
The next experiment deals with BRDT BD1 L/V (Homo sapiens, UniProt Q58F21, L63V). The experiment is described as follows: competitive AlphaLISA. It is filed as binding.
The target in a further experiment is BRD3 BD2 WT (Homo sapiens, UniProt Q15059). The experiment is described as follows: competitive AlphaLISA. The experiment is classed as binding.

SMILES strings stand for the structures.

As to `CCNC(=O)[C@H](C)[C@@H]1N=C(c2ccc(Cl)cc2)c2cc(OC)ccc2-n2c(C)nnc21` (relative stereo) [Compound 16], the IC50 at BRD4 BD1 L/V [1], at BRD4 BD2 L/V [4] and on BRD2 BD2 L/V [6] was 251 nM in each case. Further, the Kd at BRD4 BD2 L/V [2] turned out to be 80 nM; on BRD4 BD1 L/V [8], 160 nM. Further, at BRD4 BD2 L/V [2] (ITC), the “ΔH BRD4 BD2 L/V” value was -8.6 kcal/mol. Also, on BRD4 BD2 L/V [2] (ITC stoichiometry), the “N BRD4 BD2 L/V” value was 0.83. Also, the “ITC pKd ± SD L/V” value in experiment [3] amounted to 6.9 ± 0.2. Also, the “ΔH BRD4 BD2 WT” value on BRD4 BD2 WT (ITC) is given as -3.6 kcal/mol. On BRD4 BD2 WT (ITC stoichiometry), the “N BRD4 BD2 WT” value came to 0.81. For the same compound, at BRD2 BD2 L/V [5], the “N BRD2 BD2 L/V” value is given as 0.62. In addition, the “N BRD3 BD2 L/V” value on BRD3 BD2 L/V is listed as 0.74. The “ΔH BRD4 BD1 WT” value on BRD4 BD1 WT (ITC) is listed as -10.2 kcal/mol. The “N BRD4 BD1 WT” value on BRD4 BD1 WT (ITC stoichiometry) is reported as 0.96. For the same compound, the “N BRD3 BD1 L/V” value at BRD3 BD1 L/V was 0.64. For the same compound, the “N BRD2 BD1 L/V” value on BRD2 BD1 L/V is reported as 0.75. In experiment [7], the “AlphaLISA pIC50 ± SD L/V” value amounted to 6.7 ± 0.2. Besides, the “ΔH BRD4 BD1 L/V” value on BRD4 BD1 L/V [8] (ITC) is recorded as -9.5 kcal/mol. The “N BRD4 BD1 L/V” value on BRD4 BD1 L/V [8] (ITC stoichiometry) worked out at 0.92.

With `COC(=O)[C@H](C)[C@@H]1N=C(c2ccc(Cl)cc2)c2cc(OC)ccc2-n2c(C)nnc21` (relative stereo) [Compound 3], the IC50 was 50.1 nM at BRD4 BD2 L/V [4], 50.1 nM on BRDT BD1 L/V and 501 nM at BRD3 BD2 WT.
